PMC5101189, “Structure of the MIS12 Complex and Molecular Basis of Its Interaction with CENP-C at Human Kinetochores” (Cell, 2016)
Where a chain is given by its changes, count along the chain named. Names and notes keep the numbering of the source. Blank lines part the entries; values can stand above or below the binder they belong to.

Legend:
^FAMCENP-C^1–71, Q03188 = biological target: T1, ^FAMCENP-C^1–71, Q03188; assay: analytical SEC (495 nm absorbance of FAM-CENP-C1-71 co-eluting with MIS12C); conditions: chain shown with the change; height of the 495 nm peak at the MIS12C elution volume (about 1.5 ml); read off a plot
T1 chain: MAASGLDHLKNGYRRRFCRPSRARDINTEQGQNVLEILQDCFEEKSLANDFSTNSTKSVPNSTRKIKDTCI

[1] = biological target: T2, ^FAMCENP-C^1–21 (human), Q03188; assay: fluorescence polarisation; 20 nM 5-FAM CENP-C^1-21 peptide with increasing MIS12C variant (1.28 pM-30 μM), 20 mM Tris-HCl pH 8, 150 mM NaCl, 1 mM TCEP, measured at 30°C at equilibrium
T2 chain: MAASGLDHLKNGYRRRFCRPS

^FAMCENP-C^1–21, Q03188 = biological target: T3, ^FAMCENP-C^1–21, Q03188; assay: fluorescence polarisation; conditions: chain shown with the change; FAM-CENP-C1-21 peptide at 20 nM; value at the highest MIS12C concentration (about 25 µM, estimated); parent: est. 170; read off a plot
T3 chain: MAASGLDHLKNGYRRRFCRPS

Kd [1]: 2.2 nM
B2: MIS12C^ΔHead2, Q9H081 1-205; Q6P1K2 31-205; Q96IY1 1-281; Q9H410 1-356 (complex)
chain 1: MSVDPMTYEAQFFGFTPQTCMLRIYIAFQDYLFEVMQAVEQVILKKLDGIPDCDISPVQIRKCTEKFLCFMKGHFDNLFSKMEQLFLQLILRIPSNILLPEDKCKETPYSEEDFQHLQKEIEQLQEKYKTELCTKQALLAELEEQKIVQAKLKQTLTFFDELHNVGRDHGTSDFRESLVSLVQNSRKLQNIRDNVEKESKRLKIS
chain 2: TISRVKLLDTMVDTFLQKLVAAGSYQRFTDCYKCFYQLQPAMTQQIYDKFIAQLQTSIREEISDIKEEGNLEAVLNALDKIVEEGKVRKEPAWRPSGIPEKDLHSVMAPYFLQQRDTLRRHVQKQEAENQQLADAVLAGRRQVEELQLQVQAQQQAWQALHREQRELVAVLREPE
chain 3: GTLQKCFEDSNGKASDFSLEASVAEMKEYITKFSLERQTWDQLLLHYQQEAKEILSRGSTEAKITEVKVEPMTYLGSSQNEVLNTKPDYQKILQNQSKVFDCMELVMDELQGSVKQLQAFMDESTQCFQKVSVQLGKRSMQQLDPSPARKLLKLQLQNPPAIHGSGSGSCQ
chain 4: GQAWQEASDNCFMDSDIKVLEDQFDEIIVDIATKRKQYPRKILECVIKTIKAKQEILKQYHPVVHPLDLKYDPDPAPHMENLKCRGETVAKEISEAMKSLPALIEQGEGFSQVLR
modifications: not checked

response (Polarization (x10^3)) (^FAMCENP-C^1–21, Q03188): 100
B5: MIS12C^Nano, Q9H081;Q6P1K2;Q96IY1;Q9H410 NSL1:D105A; NSL1:E112A; NSL1:D113A (protein)
chain 1: B2 chain 1
chain 2: B2 chain 2
chain 3: MAGSPELVVLDPPWDKELAAGTESQALVSATPREDFRVRCTSKRAVTEMLQLCGRFVQKLGDALPEEIREPALRDAQWTFESAVQENISINGQAWQEASDNCFMASDIKVLAAQFDEIIVDIATKRKQYPRKILECVIKTIKAKQEILKQYHPVVHPLDLKYDPDPAPHMENLKCRGETVAKEISEAMKSLPALIEQGEGFSQVLRMQPVIHLQRIHQEVFSSCHRKPDAKPENFITQIETTPTETASRKTSDMVLKRKQTKDCPQRKWYPLRPKKINLDT
chain 4: SHQERLQSKSLHLSPQEQSASYQDRRQSWRRASMKETNRRKSLHPIHQGITELSRSISVDLAESKRLGCLLLSSFQFSIQKLEPFLRDTKGFSLESFRAKASSLSEELKHFADGLETDGTLQKCFEDSNGKASDFSLEASVAEMKEYITKFSLERQTWDQLLLHYQQEAKEILSRGSTEAKITEVKVEPMTYLGSSQNEVLNTKPDYQKILQNQSKVFDCMELVMDELQGSVKQLQAFMDESTQCFQKVSVQLGKRSMQQLDPSPARKLLKLQLQNPPAIHGSGSGSCQ

Second part, the binder before the results:

B1: MIS12C^Nano, Q9H081;Q6P1K2;Q96IY1;Q9H410 MIS12:D30A; MIS12:E34A (protein)
chain 1: B2 chain 1 with D30A, E34A
chain 2: B2 chain 2
chain 3: B5 chain 3 with A105D, A112E, A113D
chain 4: B5 chain 4
response (^FAMCENP-C^1–71, Q03188): 4.7 AU

B3: MIS12C^Nano, Q9H081;Q6P1K2;Q96IY1;Q9H410 MIS12:D30A; MIS12:E34A; MIS12:E65A; MIS12:D76A (protein)
chain 1: B2 chain 1 with D30A, E34A, E65A, D76A
chain 2: B2 chain 2
chain 3: B5 chain 3 with A105D, A112E, A113D
chain 4: B5 chain 4
response (^FAMCENP-C^1–71, Q03188): 1.6 AU

B4: MIS12C^Nano, Q9H081;Q6P1K2;Q96IY1;Q9H410 MIS12:Y8A; MIS12:F12A; MIS12:F13A (protein)
chain 1: B2 chain 1 with Y8A, F12A, F13A
chain 2: B2 chain 2
chain 3: B5 chain 3 with A105D, A112E, A113D
chain 4: B5 chain 4
response (Polarization (x10^3)) (^FAMCENP-C^1–21, Q03188): 140
